## Antibody variant affinities, Ab-14 light chain, assay B

The measurements come from Li et al. 2023 (doi:10.1038/s41467-023-39022-2) through the FLAb antibody collection.

Antigen: PDVDLGDISGINAS, a 14-residue peptide of the SARS-CoV-2 spike HR2 region.

The variants keep the heavy chain, the linker and the frameworks of Ab-14 (scFv order VH, a 15-residue (Gly4Ser)3 linker, VL).
VH: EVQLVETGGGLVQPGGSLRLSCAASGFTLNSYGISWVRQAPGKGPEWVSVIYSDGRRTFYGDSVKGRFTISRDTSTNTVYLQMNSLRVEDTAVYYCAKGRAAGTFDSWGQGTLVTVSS
VL: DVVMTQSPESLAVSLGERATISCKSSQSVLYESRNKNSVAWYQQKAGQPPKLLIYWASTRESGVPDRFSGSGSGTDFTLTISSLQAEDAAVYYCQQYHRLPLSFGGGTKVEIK

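The parent was found by panning a naive human phage display library on the peptide. The variants were designed computationally from a first round of random CDR variants and then made and measured. Their group label is 14L_GP_HC (GP: Gaussian process model; HC: hill climbing; a sequence that several methods proposed may carry one label only). AlphaSeq pools MATa yeast showing the antibodies with MATalpha yeast showing the peptide. Mating (16 h, 30 °C) was followed by selection of diploids and sequencing of their barcodes. The ratio of observed to expected reads was calibrated, replicate by replicate, on BCL2-family standards whose Kd was known from biolayer interferometry. Mating was done six times.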

Substitutions are numbered in sequence along the VL above, starting at 1 (not Kabat).
Numbers give log10(Kd / nM), so 0 is 1 nM and 3 is 1 µM. Smaller is tighter.
A pair that was not seen in that replicate is written "nd"; this usually means weak binding, but a binder can also be missed.
The range of this assay differs from that of the first round, and the authors advise against merging the two.
Of ten entries with the parent sequence, four were seen in most replicates (averages 0.34 to 2.37), three in one and three in none, so single entries are noisy.
In the paper, a design with two or fewer of six values counts as a poor binder.
Three control strains display no target. For all light chain designs, 4% of the pairings with them gave a signal, with a median of 2.64 and one signal in twenty below 1.59, so weak values seen in few replicates may be background. For each scFv, signals with the empty controls are counted beside the result, with their mean in brackets.

changes | log10 Kd (nM) by replicate | empty controls
V29F+W56G+Q96D | 0.45 / 0.30 / 0.35 / 0.36 / 0.18 / 0.64 | 1/18 (2.03)
S25L+V29T+E61L | 0.86 / 0.54 / 1.07 / 0.61 / 0.99 / 0.61 | 0/18
S25W+Y31M+K36C+W56D | 0.43 / 0.38 / 0.31 / 0.23 / 0.16 / 0.23 | 4/18 (3.21)
K24H+S25Q+Q27E+W56N+A57G+S62V | 0.16 / -0.11 / -0.02 / -0.12 / 0.10 / 0.06 | 1/18 (2.77)
S25F+L30K+Y31F+W56D | 0.18 / -0.15 / -0.12 / -0.28 / -0.37 / 0.04 | 0/18
Q27I+V29Y+K36P+W56E+T59Y | 0.04 / 0.48 / -0.38 / -0.23 / -0.30 / -0.36 | 0/18
Q27P+R34M+W56N+E61M | 0.05 / 0.51 / -0.02 / -0.14 / -0.19 / -0.04 | 0/18
S25L+S26R+V29T+K36Q+S62V | 0.74 / 0.23 / 0.05 / 0.11 / 0.07 / 0.27 | 1/18 (2.19)
V29E+L30P+Y31F+W56D | 0.31 / -0.02 / 0.05 / -0.12 / 0.02 / 0.08 | 0/18
K24I+Y31D+K36D+W56D | 0.45 / 0.56 / 0.50 / 1.00 / 0.37 / 0.94 | 3/18 (3.43)
V29Y+R34G+W56N+E61M | 0.29 / 0.29 / 0.05 / 0.18 / 0.23 / 0.31 | 2/18 (2.86)
Q27I+V29K+Y31E+W56E | 1.07 / nd / nd / 0.86 / nd / 1.84 | 0/18
S26G+S28G+N35M+W56G | 0.67 / 0.40 / 0.59 / 0.78 / 0.66 / 0.88 | 0/18
S25N+Y31F+W56D | 0.07 / 0.12 / 0.11 / 0.03 / 0.20 / 0.04 | 4/18 (3.04)
S25V+Y31G+S33Q+K36S+W56D+A57I | 0.09 / -0.03 / 0.24 / -0.22 / 0.22 / 0.22 | 0/18
Y31I+W56D | 0.20 / -0.02 / -0.07 / -0.34 / -0.45 / 0.00 | 0/18
S25F+Q27P+N35F+W56N | 0.13 / 0.25 / 0.04 / -0.08 / -0.14 / 0.23 | 1/18 (2.05)
L30K+Y31F+W56D+E61C | 0.54 / 0.06 / 0.21 / 0.41 / 0.21 / 0.23 | 0/18
S25L+S28G+L30N+W56G | 0.24 / -0.05 / -0.15 / -0.21 / -0.24 / -0.02 | 1/18 (2.63)
S25C+W56D+H98Q | -0.29 / -0.55 / -0.65 / -0.33 / -0.41 / -0.44 | 2/18 (2.28)
S25F+S28Q+N35T+W56N | -0.07 / -0.05 / -0.42 / -0.37 / -0.33 / -0.07 | 2/18 (2.89)
K24H+S25L+Q27F+S28V+W56N | nd / 1.44 / 1.67 / 1.01 / 3.97 / 2.99 | 1/18 (2.38)
S26L+W56H+T59V+S62D | -0.49 / -0.46 / 0.07 / -0.19 / -0.36 / -0.43 | 1/18 (1.46)
S26E+Q27I+V29F+W56E | 1.37 / 1.12 / nd / 1.94 / 0.60 / 0.86 | 1/18 (1.10)
S25C+S33W+W56D | 0.25 / 0.25 / 0.36 / 0.06 / 0.06 / 0.55 | 0/18
S25Q+S33W+W56D+T59Q | 0.27 / 0.28 / 0.26 / 0.31 / 0.05 / 0.35 | 3/18 (2.83)
S25M+S26Y+Q27P+V29Y+W56Q | 0.59 / 0.55 / 0.74 / 0.57 / 0.48 / 0.46 | 1/18 (2.52)
K24V+V29W+W56G | 0.01 / -0.01 / -0.18 / -0.30 / -0.17 / 0.14 | 1/18 (2.37)
Q27I+V29Q+R34M+W56N+A57G | 0.91 / 0.76 / 0.50 / 0.28 / 0.40 / 0.70 | 1/18 (1.99)
S25L+Q27A+Y31P+W56N | 0.01 / -0.16 / -0.27 / -0.37 / -0.02 / 0.00 | 0/18
S25Q+V29D+Y31M+W56D | 0.01 / 0.07 / -0.08 / -0.23 / -0.17 / -0.03 | 0/18
S25V+S28E+V29K+L30D+W56D | -0.04 / 0.07 / 0.19 / -0.07 / 0.02 / 0.20 | 0/18
S25V+Y31G+S33Q+W56E | 0.18 / 0.16 / 0.44 / 0.21 / 0.24 / 0.27 | 4/18 (3.38)
K24R+S25Q+Y31M+W56D | 0.32 / -0.06 / -0.07 / 0.13 / 0.23 / 0.36 | 3/18 (2.91)
V29F+W56G+Q96N | 0.31 / 0.35 / 0.22 / 0.11 / 0.23 / 0.32 | 3/18 (3.25)
Q27I+V29N+K36T+W56E | 0.16 / 0.25 / 0.24 / 0.10 / 0.23 / 0.42 | 0/18
S25V+S33W+W56D | -0.02 / -0.29 / -0.18 / -0.55 / -0.24 / -0.05 | 0/18
Q27I+V29A+Y31E+W56E | 0.01 / 0.11 / 0.03 / -0.10 / -0.06 / 0.11 | 2/18 (3.47)
S26Q+V29W+W56G+S62H | -0.19 / -0.28 / -0.42 / -0.50 / -0.40 / -0.22 | 1/18 (2.19)
S25Q+V29A+Y31C+W56D | 1.13 / 1.04 / 0.25 / 0.10 / 0.28 / 0.22 | 0/18
S26L+V29G+K36F+W56H+S62D | 0.27 / 0.14 / -0.30 / -0.13 / -0.01 / 0.32 | 0/18
S25I+V29F+K36V+W56G+E61D | 0.08 / -0.27 / -0.43 / -0.26 / -0.28 / 0.09 | 1/18 (1.97)
S28E+V29W+W56Q+S62Q | 0.03 / -0.12 / -0.26 / -0.20 / -0.16 / -0.02 | 5/18 (3.14)
S25V+E32W+R34G+N35T+W56N+T59Q | 0.62 / 0.55 / 0.28 / 0.38 / 0.09 / 0.37 | 0/18
Q27I+V29Y+L30D+K36E+W56E+S62Q | 0.43 / 0.59 / 0.77 / 0.44 / 0.02 / 0.79 | 1/18 (3.44)
Q27I+V29Y+S33W+W56E+S62Q | 0.96 / 0.15 / 0.10 / 0.03 / 0.32 / 0.09 | 0/18

4 of these entries, quoted again:

changes | log10 Kd (nM) by replicate | empty controls
S25F+S28Q+N35T+W56N | -0.07 / -0.05 / -0.42 / -0.37 / -0.33 / -0.07 | 2/18 (2.89)
V29F+W56G+Q96N | 0.31 / 0.35 / 0.22 / 0.11 / 0.23 / 0.32 | 3/18 (3.25)
K24H+S25Q+Q27E+W56N+A57G+S62V | 0.16 / -0.11 / -0.02 / -0.12 / 0.10 / 0.06 | 1/18 (2.77)
S25N+Y31F+W56D | 0.07 / 0.12 / 0.11 / 0.03 / 0.20 / 0.04 | 4/18 (3.04)